Results as given in patent publication US10016498B2, “D-amino acid derivative-modified peptidoglycan and methods of use thereof” (priority 2012, dated 2018).

Tests used:
[1] = test system: E. coli PG; assay: HPLC and mass spectrometry of muropeptides from purified PG; format: cell-based, Escherchia coli; conditions: E. coli incubated in azDala alone
[2] = test system: C. glutamicum; assay: norDala labeling detected with tetrazine-fluorescein; conditions: 5 mM or 20 mM norDala, 10 uM tetrazine-fluorescein

Compound | fraction of D-alanine replaced with the synthetic analog, tetrapeptide pool [1] | fraction of D-alanine replaced with the synthetic analog, total muropeptide population [1] | cell surface fluorescence after conjugation with tetrazine-fluorescein [2]
[N-]=[N+]=NC[C@@H](N)C(=O)O | roughly 50% | 15% | 
norbornene-D-alanine |  |  | cell surface fluorescence
